Results as given in US9028845B2, “Chimeric immunomodulatory compounds and methods of using the same-IV” (Dynavax Technologies Corporation, priority 2001, dated 2015).

Tests used:
[1] = tested on: mouse splenocytes; assay: Mouse splenocyte cytokine secretion (IL-6, IL-12, IFN by ELISA); assay type: cell-based, BALB/c mice; details: dose 0.1 μg/ml; 24 h
Method: Polynucleotides and chimeric compounds were tested for immunostimulatory activity on mouse splenocytes. Immunostimulation was assessed by measurement of cytokine secretion into the culture media. Cytokine levels in the culture supernatant were determined by enzyme-linked immunosorbent assay (ELISA) tests.
Cells were isolated and prepared using standard techniques. Spleens of 8 to 20 week-old BALB/c mice were harvested and the splenocytes isolated using standard teasing and treatment with ACK lysing buffer from BioWhittaker, Inc. Four spleens were pooled in this experiment. Isolated cells were washed in RPMI 1640 media supplemented with 2% heat-inactivated fetal calf serum (FCS), 50 μM 2-mercaptoethanol, 1% penicillin-streptomycin, and 2 mM L-glutamine and resuspended at approximately […] in 10% FCS/RPMI (RPMI 1640 media with 10% heat-inactivated FCS, 50 μM 2-mercaptoethanol, 1% penicillin-streptomycin, and 2 mM L-glutamine).
Cell cultures were set up in triplicate with approximately 7×10^5 cells/well in a 96-well flat microtiter plate in 100 μl 10% FCS/RPMI with the cells allowed to rest for at lest 1 hour after plating. The indicated test compounds were incubated (at the indicated concentrations) for 24 hours at 37° C. Cell supernatants were harvested and frozen at −80° C. Cytokine production by the cells was determined by ELISAs, as shown in 19.

[2] = tested on: human PBMCs; assay: Human PBMC cytokine response assay (IFN-γ and IFN-α in cell-free medium by ELISA), with or without cPLGA; assay type: cell-based
[3] = tested on: CD19+ B cells; assay: Human B cell proliferation assay (3H-thymidine incorporation); details: Experiment B

5′-TGACTGTGAACGTTCGAGATGA-3′ (SEQ ID NO: 2)
IL-6 [1]: 121
IFN-α ([2]; Table 11, donor 28045): 108 pg/mL
IFN-g ([2]; Table 25, donor 28250, polynucleotides/spacers at amounts equivalent to the CIC, spacers alone 9 uM): 121 pg/mL
cpm1 ([3]; donor 121, 2 μg/ml): 19996 cpm
cpm2 ([3]; donor 121, 2 μg/ml): 15031 cpm
cpm3 ([3]; donor 121, 2 μg/ml): 19804 cpm
mean cpm ([3]; donor 121 mean, 2 μg/ml): 18277 cpm
mean of both ([3]; mean of donors 121 and 194, 2 μg/ml): 15041 cpm
